Target: Netrin-1ΔC (Netrin-1 from Gallus gallus lacking the C-terminal domain) (Gallus gallus) (UniProt Q90922)
Experiment: SEC-MALS; 5 mg/mL Netrin-1 in 50 mM Tris pH 7.5, 200 mM NaCl; 300 uL on Superose 6 Increase 10/300 at 0.3 mL/min; Wyatt Dawn Heleos II; monomer-dimer equilibrium

stoichiometry N: 2
Substance: Netrin-1ΔC (Netrin-1 from Gallus gallus lacking the C-terminal domain) (from UniProt Q90922 26-458) (domain or fragment)
